For three molecules, CC50 results are on record in patent US12252481B2, “Anti-viral compounds” (Aligos Therapeutics, Inc., priority 2021, dated 2025).

Data set [1] concerns A549-dual_ACE2_TMPRSS2 cells. As to conditions: read-out: A549-dual_ACE2_TMPRSS2 (CC50); assay medium without virus, MTS, numeric values. The protocol:
The A549-dual_ACE2_TMPRSS2 cells (InvivoGen Cat #a549-cov2r) were propagated in the growth medium which was prepared by supplementing DMEM (gibco cat no 41965-039) with 10% v/v heat-inactivated FCS and 10 μg/mL blasticidin (InvivoGen ant-bl-05), 100 μg/mL hygromycin (InvivoGen ant-hg-1), 0.5 μg/mL puromycin (InvivoGen ant-pr-1) and 100 μg/mL zeocin (InvivoGen ant-zn-05) in a humidified 5% CO2 incubator at 37° C. The assay medium was prepared by supplementing DMEM (gibco cat no 41965-039) with 2% v/v heat-inactivated FCS.
For antiviral testing, cells were seeded in 96-well plates (Falcon) at a density of 15,000 cells per well in assay medium. After overnight growth, cells were treated with the indicated compound concentrations and infected with a MOI of 0.001 TCID50/cell (final volume 200 μL/well in assay medium). On day 4 p.i. differences in cell viability caused by virus-induced CPE or by compound-specific side effects are analyzed using MTS as described previously (PMID: 22575574).
For toxicity testing, the same experimental setup was used except that assay medium without virus was added to the cells and that an additional control of well without cells was added to the plate.
Table 4 indicates related EC50 and CC50 values for the tested compounds ‘A’ indicates an EC50<100 nM, ‘B’ indicates an EC50 of ≥100 nM and <1000 nM, ‘C’ indicates an EC50≥1000 nM and <10000 nM. For CC50, the values are reported in micromolar (μM). ‘A’ indicates a CC50≥10 μM. ‘B’ indicates a CC50≥1 μM and <10 μM.

Data set [2] relates to HeLa cells. The data set is described as follows: Cytotoxicity in HeLa cells without OC43 virus (cell-titer-glo). The protocol: HeLa human cervical epithelial cells (ATCC) were used as susceptible host cell lines and were cultured using EMEM media, supplemented with 10% fetal bovine serum (FBS), 1% (v/v) penicillin/streptomycin (P/S), 1% (v/v) HEPES and 1% (v/v) cellgro Glutagro™ supplement (all Corning, Manassas, VA) at 37° C. For the OC43 antiviral assay, 1.5×10^4 HeLa cells per well were plated in 100 μL complete media in white 96-well plates with clear bottoms at 37° C. for up to 24 h to facilitate attachment and allow cells to recover from seeding stresses. Next day, the cell culture medium was removed. Serially diluted compounds in 100 μL assay media (EMEM, 2% FBS, 1% P/S, 1% cellgro Glutagro™ supplement, 1% HEPES) were added to the cells and incubated for 4 H at 37° C. in a humidified 5% CO2 incubator. […] 96-well plates were incubated for 6 (HeLa) days at 33° C.; each plate contains uninfected control wells as well as virus-infected wells that were not treated with compound. Cytotoxicity plates without the addition of OC43 virus were carried out in parallel. At the end of the incubation period, 100 μL cell culture supernatant was replaced with 100 μL cell-titer-glo reagent (Promega, Madison, WI) and incubated for at least 10 min at rt prior to measuring luminescence. Luminescence was measured on a Perkin Elmer (Waltham, MA) Envision plate reader. Antiviral % inhibition was calculated as follows: [(Compound treated cells infected sample)−(no compound infected control)]/[(Uninfected control)−(no compound infected control)]*100; Using GraphPad (San Diego, CA) prism software version 8.3.1, the antiviral dose-response plot was generated as a sigmoidal fit, log(inhibitor) vs response-variable slope (four parameters) model and the EC50 was calculated which is the predicted compound concentration corresponding to a 50% inhibition of the viral cytopathic effect. […]

Consider `CC(C)(C(NC(=O)C(F)(F)F)C(=O)N1C[C@H]2[C@@H]([C@H]1C(=O)N[C@H](C#N)C[C@@H]1CCNC1=O)[C@H]1C=C[C@@H]2C1)C(F)(F)F` (stereo partly drawn), for which the CC50 in data set [1] was over 1 µM; in data set [2], over 100 µM.
In the same order, the values of `CC(C)(C)[C@H](NC(=O)C(F)(F)F)C(=O)N1C[C@H]2[C@@H]([C@H]1C(=O)N[C@H](C#N)CC1CC3(CC(F)(F)C3)NC1=O)[C@H]1C=C[C@@H]2C1` (single isomer, unassigned) [83a] are over 10 µM and over 100 µM.
In the same order, the values of `CC(C)(C)[C@H](NC(=O)C(F)(F)F)C(=O)N1C[C@H]2[C@@H]([C@H]1C(=O)N[C@H](C#N)CC1CC3(CC(F)(F)C3)NC1=O)[C@H]1C=C[C@@H]2C1` (single isomer, unassigned) [83b] are over 1 µM and over 100 µM.

In general, CC50 refers to the concentration that lowers cell viability or growth by half.
